The text below walks through data of publication PMC8336721 (ACS chemical neuroscience, 2020).

Amino acid sequences for entries named in this document (tags omitted). A change or cut given only in a name is not applied to a line headed by its entry.
UniProt P33535, whole entry: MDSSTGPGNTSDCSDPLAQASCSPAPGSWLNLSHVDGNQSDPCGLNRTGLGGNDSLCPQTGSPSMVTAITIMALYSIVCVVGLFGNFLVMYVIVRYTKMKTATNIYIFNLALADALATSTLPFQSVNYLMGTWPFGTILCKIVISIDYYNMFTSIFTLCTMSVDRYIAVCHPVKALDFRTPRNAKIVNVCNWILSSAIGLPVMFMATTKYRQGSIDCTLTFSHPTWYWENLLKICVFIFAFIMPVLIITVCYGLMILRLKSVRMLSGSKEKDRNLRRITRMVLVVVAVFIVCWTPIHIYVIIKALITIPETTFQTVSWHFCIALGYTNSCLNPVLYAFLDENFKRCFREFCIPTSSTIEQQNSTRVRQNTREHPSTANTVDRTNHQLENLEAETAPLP
UniProt P41146: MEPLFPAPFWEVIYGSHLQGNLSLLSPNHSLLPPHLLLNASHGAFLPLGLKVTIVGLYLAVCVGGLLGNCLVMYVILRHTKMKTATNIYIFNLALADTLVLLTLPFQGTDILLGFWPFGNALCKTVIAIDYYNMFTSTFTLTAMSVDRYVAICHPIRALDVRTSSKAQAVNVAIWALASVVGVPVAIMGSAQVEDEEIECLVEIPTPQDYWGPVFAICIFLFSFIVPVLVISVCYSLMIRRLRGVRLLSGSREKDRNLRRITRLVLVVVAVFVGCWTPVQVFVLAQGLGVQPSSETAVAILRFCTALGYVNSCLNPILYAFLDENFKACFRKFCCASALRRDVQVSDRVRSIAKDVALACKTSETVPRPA

In one experiment the target is MOR (Rattus norvegicus, UniProt P33535). Put plainly: [35S]GTPγS binding to membranes of CHO cells stably expressing the MOR. It is filed as biochemical. In general terms: GTPγS is a poorly hydrolysed GTP analogue; its binding reports G protein activation.
Another experiment addresses NOR (Homo sapiens, UniProt P41146). Briefly: [35S]GTPγS binding to membranes of CHO cells stably expressing the NOR. The note with it: % of maximal [35S]GTPγS binding of reference full agonist N/OFQ. It is filed as biochemical.

SMILES strings stand for the structures.

For orientation: EC50 means the concentration needed to bring the measured effect to its halfway point. A low value points to an effect from little substance. Consider `C[C@@H](NC(=O)[C@@H](N)Cc1ccc(O)cc1)C(=O)NCC(=O)N(C)[C@@H](Cc1ccccc1)C(=O)NCCO` [DAMGO], for which the EC50 at MOR amounted to 6.3 ± 0.43 nM. As to `CN(C(=O)/C=C/c1ccoc1)[C@@H]1CC[C@@]2(O)[C@H]3Cc4cccc5c4[C@@]2(CCN3CC2CC2)[C@H]1O5` [42B], the “Maximal Effect, NOR” value on NOR is given as 110.9 ± 7.4%.
